One may read the IC50 as the concentration at which inhibition is half-maximal.

By UniProt entry, the sequences of proteins in these tests, tags left out.
UniProt P35222, whole entry: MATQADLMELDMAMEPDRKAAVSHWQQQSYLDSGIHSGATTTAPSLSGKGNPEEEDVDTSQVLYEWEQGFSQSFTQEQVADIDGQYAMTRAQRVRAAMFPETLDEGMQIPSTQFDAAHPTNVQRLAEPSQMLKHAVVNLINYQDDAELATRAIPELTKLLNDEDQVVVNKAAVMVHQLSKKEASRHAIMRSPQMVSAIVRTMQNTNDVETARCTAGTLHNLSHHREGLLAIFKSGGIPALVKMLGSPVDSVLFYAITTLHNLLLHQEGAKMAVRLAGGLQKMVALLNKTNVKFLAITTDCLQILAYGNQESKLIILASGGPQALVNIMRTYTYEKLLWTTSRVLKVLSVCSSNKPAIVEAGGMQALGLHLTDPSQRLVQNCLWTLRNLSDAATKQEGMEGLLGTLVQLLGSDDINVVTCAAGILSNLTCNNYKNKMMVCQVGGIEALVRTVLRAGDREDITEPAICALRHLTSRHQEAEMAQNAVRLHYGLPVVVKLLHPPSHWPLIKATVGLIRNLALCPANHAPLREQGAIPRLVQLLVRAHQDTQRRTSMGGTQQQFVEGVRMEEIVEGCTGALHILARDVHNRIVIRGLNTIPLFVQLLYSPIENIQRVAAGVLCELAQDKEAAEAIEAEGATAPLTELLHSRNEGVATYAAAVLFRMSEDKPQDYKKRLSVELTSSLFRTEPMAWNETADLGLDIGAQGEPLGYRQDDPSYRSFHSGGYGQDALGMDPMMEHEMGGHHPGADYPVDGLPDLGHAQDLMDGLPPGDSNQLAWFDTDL

This passage reports IC50 results from patent publication US20240360179A1, “STAPLED PEPTIDES AND METHODS THEREOF” (FOG PHARMACEUTICALS, INC., priority 2021, published 2024).

This assay concerns the target T1, full-length B-Catenin (Uniprot ID P35222) (Homo sapiens, UniProt P35222).
T1 construct: 10 nM full-length B-Catenin (Uniprot ID P35222)
The class given is binding. Particulars: competition fluorescence polarization; read-out: beta-Catenin FP IC50. (In general: Fluorescence polarisation rises when a labelled molecule tumbles more slowly, as on binding a larger partner.)
As for “Ac-PL3-Asp-Npg-B5-Asp-3COOHF-Aib-Ala-Phe-Lys*3-PyrS2-3Thi-BztA-GlnR*3-Val-Ser-Leu-NH2 [I-1479]”, the IC50 is < 50 nM.

With “Ac-PL3-Asp-Npg-B5-Asp-3COOHF-Aib-Ala-Phe-TriAzLys*3-PyrS2-3Thi-34ClF-sAla*3-Ala-NH2 [I-1088]”, the IC50 was < 50 nM.

In the case of “Ac-PL3-Asp-Npg-B5-Asp-3COOHF-Ala-Ala-Phe-Lys*3-SPip3-2F3MeF-BztA-GlnR*3-Ala-NH2 [I-778]”, the IC50 is < 50 nM.

With “Ac-PL3-Asp-Leu-B5-Asp-3COOHF-Aib-Ala-Phe-Lys*3-PyrS2-2MeF-34ClF-GlnR*3-NH2 [I-1512]”, the IC50 was 200 to 750 nM.

For “Ac-PL3-Asn-DipA-B5-Asp-3COOHF-nLeu-Ala-Phe-Lys*3-PyrS2-3Thi-34ClF-GlnR*3-NH2 [I-1636]”, the IC50 is < 50 nM.

In the case of “Ac-PL3-Asp-Npg-B5-Asp-3COOHF-Aib-Ala-Phe-[mPyr]hCys-PyrS2-3Thi-BztA-aMeC-Ala-NH2 [I-1425]”, the 50% inhibitory concentration (IC50) lay in the range of 50 to 200 nM.

“Ac-PL3-Asp-Ile-B5-Asp-3COOHF-Aib-Ala-Phe-AsnMeEDA*3-PyrS2-Phe-34ClF-GlnR*3-NH2 [I-1417]”: the IC50 was < 50 nM.

As for “Ac-PL3-Asp-Npg-B5-Asp-3COOHF-Aib-Ala-Phe-TriAzLys*3-PyrS2-3Thi-34ClF-sAla*3-NH2 [I-1086]”, the IC50 is < 50 nM.

Turning to “Ac-S6-Ala-Asp-Chg-B5-Asp-3COOHF-Aib-Ala-Phe-Lys*3-PyrS2-Phe-34ClF-GlnR*3-NH2 [I-1625]”, the IC50 is < 50 nM.

For the substance “Ac-PL3-Asp-Ile-B5-Asp-3COOHF-Aib-Ala-Phe-Lys*3-PyrS2-Phe-34ClF-GlnR*3-Thr-Glu-Leu-NH2 [I-1357]”, the IC50 is < 50 nM.

On to “Ac-S5-Pro-Asp-Npg-B5-Glu-Asp-Aib-Ala-Phe-Lys*3-PyrS2-3Thi-BztA-GlnR*3-Ala-NH2 [I-1333]”, for which the IC50 fell in the range of 200 to 750 nM.

For “Ac-PL3-Asp-Ile-B5-Asp-3COOHF-Aib-Ala-Phe-Lys*3-PyrS2-Phe-34ClF-GlnR*3-Thr-Ser-Ala-NH2 [I-1353]”, the IC50 was < 50 nM.

As for “Ac-PL3-Asp-DipA-B5-Asp-3COOHF-Ala-Ala-Phe-Lys*3-PyrS2-Phe-BztA-GlnR*3-Pro-NH2 [I-1843]”, the half-inhibitory concentration (IC50) is < 50 nM.

In the case of “Ac-PL3-Asp-Npg-B5-Asp-3COOHF-Aib-Ala-Phe-Lys*3-PyrS2-hCbA-34ClF-GlnR*3-Ala-NH2 [I-1320]”, the IC50 is < 50 nM.

Consider “Ac-PL3-Asp-Leu-B5-Asp-3COOHF-Aib-Ala-Phe-Lys*3-PyrS2-Phe-34ClF-GlnR*3-Ala-NH2 [I-1907]”, for which the IC50 is < 50 nM.

“Ac-Pro-S6-Leu-Asp-Chg-B5-Asp-3COOHF-Aib-Ala-Phe-Lys*3-PyrS1-3Thi-BztA-GlnR*3-NH2 [I-1941]”: the IC50 is < 50 nM.

For the substance “Ac-PL3-Asp-Npg-B5-Asp-3COOHF-Aib-Ala-Phe-Lys*3-PyrS2-[Me2NAc]2NH2F-BztA-GlnR*3-Ala-NH2 [I-1748]”, the IC50 lay in the range of 200 to 750 nM.

Turning to “Ac-PL3-Asp-Npg-B5-Asp-TfeGA-Aib-Ala-Phe-Lys*3-PyrS2-2F3MeF-34ClF-GlnR*3-Leu-Ser-NH2 [I-893]”, the half-inhibitory concentration (IC50) is 50 to 200 nM.

Regarding “Ac-PL3-Asp-Ile-B5-Asp-3COOHF-Aib-Ala-Phe-GlnS3APyr*3-PyrS2-Phe-34ClF-GlnR*3-NH2 [I-1383]”, the IC50 was < 50 nM.

With “Ac-S5-Ala-Asp-Chg-B5-Asp-3COOHF-Aib-Ala-Phe-Lys*3-PyrS2-Phe-34ClF-GlnR*3-NH2 [I-1620]”, the half-maximal inhibitory concentration (IC50) is < 50 nM.

Regarding “Ac-PL3-Asp-Ile-B5-Asp-3COOHF-Aib-Ala-Phe-Lys*3-PyrS2-hhSer-34ClF-GlnR*3-Ala-NH2 [I-1316]”, the IC50 is 50 to 200 nM.

As to “Ac-PL3-Asp-Npg-B5-Asp-3COOHF-Aib-Ala-Phe-Lys*3-PyrS2-3Thi-BztA-GlnR*3-Ala-Ala-Ala-[mPEG8]Lys-NH2 [I-1408]”, the half-maximal inhibitory concentration (IC50) was < 50 nM.

For the substance “Ac-S5-Glu-Asp-Npg-B5-Glu-3COOHF-Aib-Ala-Phe-Lys*3-PyrS2-3Thi-BztA-GlnR*3-Ala-NH2 [I-1211]”, the IC50 is < 50 nM.

Consider “Ac-Asp-Ser-S5-Ala-Asp-Npg-B5-Asp-3COOHF-Aib-Ala-Phe-Lys*3-PyrS2-3Thi-BztA-GlnR*3-Ala [I-1294]”, for which the IC50 is < 50 nM.

Consider “Ac-PL3-Asp-Leu-B5-Asp-3COOHF-Aib-Ala-Phe-Lys*3-PyrS2-BztA-34ClF-GlnR*3-Ala-NH2 [I-1909]”, for which the IC50 was < 50 nM.

As for “Ac-PL3-Asp-Npg-B5-Asp-[Pfbn]GA-Aib-Ala-Phe-Lys*3-PyrS2-3Thi-BztA-GlnR*3-Ala-NH2 [I-1398]”, the IC50 is < 50 nM.

Turning to “Ac-PL3-Asp-Leu-B5-Asp-3COOHF-Aib-Ala-Phe-Lys*3-PyrS2-Trp-34ClF-GlnR*3-Ala-NH2 [I-1908]”, the IC50 is < 50 nM.

For the substance “Ac-PL3-Asp-DipA-B5-Ser-3COOHF-nLeu-Ala-Phe-Lys*3-PyrS2-3Thi-BztA-GlnR*3-NH2 [I-1683]”, the IC50 lay within 200 to 750 nM.

Consider “Ac-PL3-Asp-Npg-B5-Asp-3COOHF-Aib-Ala-Phe-Lys*3-PyrS2-3Thi-2NapA-GlnR*3-Ala-NH2 [I-486]”, for which the IC50 is < 50 nM.

For “Ac-PL3-Asp-Leu-B5-Asp-3COOHF-GlnR*3-Ala-Phe-Leu-PyrS2-Phe-34ClF-GlnC4CyMe*3-NH2 [I-1898]”, the concentration for half-maximal inhibition (IC50) was < 50 nM.

As to “Ac-PL3-Asp-Npg-B5-Asp-3COOHF-Aib-Ala-Phe-[mPyr]hCys-PyrS2-3Thi-BztA-Pen-Ala-NH2 [I-1469]”, the IC50 is < 50 nM.

As for “Ac-PL3-Asp-Npg-B5-Asp-3COOHF-Aib-Ala-Phe-Lys*3-Az3-2F3MeF-BztA-GlnR*3-Ala-NH2 [I-946]”, the IC50 was < 50 nM.

As for “Ac-PL3-Asp-Ile-B5-Asp-3COOHF-Aib-Ala-Phe-Lys*3-PyrS2-hCbA-34ClF-GlnR*3-Ala-NH2 [I-1326]”, the IC50 was < 50 nM.

Take “Ac-PL3-Asp-Cha-B5-Asp-3COOHF-Ala-Ala-Phe-Lys*3-PyrS2-2ClF-BztA-GlnR*3-NH2 [I-1528]”: the half-inhibitory concentration (IC50) is < 50 nM.

As for “Ac-PL3-Asp-Npg-B5-Asp-3COOHF-Aib-Ala-Phe-Lys*3-PyrS2-3Thi-BztA-GlnR*3-Val-Ser-Leu-Pro-NH2 [I-1480]”, the IC50 is < 50 nM.

For “Ac-PL3-Asp-Ile-B5-Asp-3COOHF-Aib-Ala-Phe-Lys*3-PyrS2-Phe-2BrF-GlnR*3-NH2 [I-1603]”, the IC50 lay within 200 to 750 nM.

Regarding “Ac-PL3-Asp-Npg-B5-Asp-SbMeAsp-Aib-Ala-Phe-Lys*3-PyrS2-Phe-34ClF-GlnR*3-NH2 [I-1060]”, the IC50 is < 50 nM.

As for “Ac-PL3-Asp-Ile-B5-Asp-3COOHF-Aib-Ala-Phe-Lys*3-PyrS2-2MeF-34ClF-GlnR*3-NH2 [I-1508]”, the IC50 is < 50 nM.

In the case of “Ac-PL3-Asp-Npg-B5-Asp-3COOHF-[Ac]PyrRa-Ala-Phe-Lys*3-PyrS2-3Thi-BztA-GlnR*3-Ala-NH2 [I-1034]”, the IC50 is < 50 nM.

Take “Ac-PL3-Asp-Npg-B5-Asp-3COOHF-Aib-Ala-Phe-[Red]Cys-PyrS2-3Thi-BztA-Cys-Ser-NH2 [I-1521]”: the IC50 was < 50 nM.

Turning to “Ac-PL3-Asp-Leu-B5-Asp-3COOHF-Aib-Ala-Phe-Lys*3-PyrS2-6ClW-BztA-GlnR*3-Ala-NH2 [I-1916]”, the half-maximal inhibitory concentration (IC50) lay within 50 to 200 nM.

With “Ac-PL3-Asp-Ile-B5-Asp-3COOHF-Aib-Ala-Phe-GlnR*3-PyrS2-Phe-34ClF-GlnPpz*3-NH2 [I-1380]”, the half-inhibitory concentration (IC50) was < 50 nM.

For the substance “Ac-PL3-Asp-Chg-B5-Asp-3COOHF-Aib-Thr-Phe-Lys*3-PyrS2-3Thi-BztA-GlnR*3-Ala-NH2 [I-997]”, the IC50 is < 50 nM.
